The results in this text go back to paper PMC7165421 (Proceedings of the National Academy of Sciences of the …, 2020).

The experiment relates to ARΔNTD binding to ARE/ETS DNA. Description: AR binding to ARE/ETS DNA in presence of unlabeled peptides. The arrangement: species or system mouse. Conditions: unlabeled peptide in 4-molar excess to AR, no full-length ERG.

As for QIQLWHFILELLRKEEY [ERF AIM], the “effect on AR binding to DNA” value was “repressed the ability of AR to bind DNA”.
